Target: α2B-AR (Homo sapiens, UniProt P18089)
Assay: Saturation binding assay of the radioligand
Settings: read-out: KD α2B-AR

Chains of the proteins cited; added tags and fusions are not shown.
UniProt P18089, whole entry: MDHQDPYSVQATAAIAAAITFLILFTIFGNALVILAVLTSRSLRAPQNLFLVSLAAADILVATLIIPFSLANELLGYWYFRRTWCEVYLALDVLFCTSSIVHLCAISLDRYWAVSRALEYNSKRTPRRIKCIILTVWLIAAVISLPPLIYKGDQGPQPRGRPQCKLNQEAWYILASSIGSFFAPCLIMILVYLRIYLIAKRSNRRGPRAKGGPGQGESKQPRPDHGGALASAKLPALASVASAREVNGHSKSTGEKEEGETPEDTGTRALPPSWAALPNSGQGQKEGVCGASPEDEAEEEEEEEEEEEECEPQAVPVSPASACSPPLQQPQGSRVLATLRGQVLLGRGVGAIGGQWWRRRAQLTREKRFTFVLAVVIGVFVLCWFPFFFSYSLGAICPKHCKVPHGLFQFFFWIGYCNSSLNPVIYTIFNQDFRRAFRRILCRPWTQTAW

## Clc1cc(I)cc(Cl)c1NC1=NCCN1 [[^125I]-PIC, [^125I]-paraiodoclonidine]
  Kd: 602 ± 81 pM

Reference: article PMC7340475 (Drug Design, Development and Therapy, 2020)
